Assay outcomes deposited in PubChem by Broad Institute.
Hits are enriched below; roughly 2.8% of the tested compounds scored in any of these assays.
MITF act: activators of MITF-driven TRPM1 promoter activity in SK-MEL-5 cells. SK-MEL-5 TRPM1-promoter luciferase, 24 h; % of positive control, neutral wells = 0. activation, % at 12.5 µM. actives 0.75% (n = 300,000). AID 588334;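 active means mean activation of at least 80% with every replicate also reaching 80%; inconclusive means mean reaches 80% but some replicate falls short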;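 further: 0% = neutral control wells and 100% = parthenolide positive control wells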
PglD inh: PglD (C. jejuni) enzyme inhibition; purified PglD enzyme, DTNB colorimetric CoA detection; inhibition, % at 12.5 µM; actives 0.098% (n = 360,000); in the data active means inhibition above about 16%, passing the limit was not always enough; inconclusive means no clear call, values can overlap the other calls
esBAF inh: SWI/SNF esBAF complex inhibition; reporter increase, % at 12.5 µM; actives 2% (n = 350,000); mouse ES cells, Bmi1-luciferase knock-in reporter, 24 h; 100% = twice the neutral-well signal; in the data active means activation above about 40%; inconclusive means no clear call, values can overlap the other calls;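 further: 0% = median of the plate's neutral control wells and 100% = double that signal; a rise in the Bmi1 reporter signal indicates esBAF inhibition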
Wnt act: activators of Wnt/beta-catenin signaling; Wnt/beta-catenin reporter cell assay, activator, plate reader; activation, % at 9.35 µM; actives 1.2% (n = 300,000); in the data active means activation above about 30%, passing the limit was not always enough; inconclusive means no clear call, values can overlap the other calls;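 further: 0% = neutral control wells and 100% = positive control wells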
Yeast UUG start: modulators of yeast start codon fidelity, primary screen, whole organism, S. cerevisiae, single point, plate reader. S. cerevisiae UUG-firefly luciferase reporter, luminescence/redox ratio. activity score, % at 18.7 µM. 350,000 tested, 0.13% active;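 active = replicate mean at a twofold rise or more, about +100% in these data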;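 also: firefly luciferase made from a UUG start codon reports start codon fidelity; reporter light over untreated wells divided by growth signal over untreated wells; some hits fall short of that in this replicate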
miR122 inh: blocks miR-122 activity in Huh7 sensor cells. Huh7 miR-122 Renilla luciferase sensor, 48 h; neutral wells = 0, positive control = 100. activation (reporter increase), % at 12.5 µM. actives 0.3% (n = 340,000). AID 602342;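 active means mean replicate activation score at least 90 and every replicate individually at or above 90; inconclusive means only one of the two criteria met; inactive means neither criterion met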;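 further: higher luciferase means less miR-122 activity so hits act as miR-122 inhibitors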
An asterisk follows results filed as active; ? = inconclusive; · = no result; [ ] = remark or other dose.

item	compound	MITF act	PglD inh	esBAF inh
1	COc1cccc(-c2cc3onc(-c4ccccc4)c3c(=O)n2C)c1	63	4	-17
2	C[C@@H]1CCCCO[C@H](CN(C)C(=O)c2ccccc2)[C@H](C)CN([C@@H](C)CO)C(=O)c2cc(NC(=O)c3ccccc3)ccc2O1	·	3	·
3	O=C(Nc1nccs1)c1sc2cc(Cl)ccc2c1Cl	·	-1	57*
4	O=C(Nc1ccccn1)c1sc2cc([N+](=O)[O-])ccc2c1Cl	·	9	42*
5	CC(NC(=O)c1sc2ccccc2c1Cl)C1CCCO1 (stereo not drawn)	126*	·	·
6	O=C(Nc1nccs1)c1sc2ccccc2c1Cl	-2	1	·
7	O=C(NC(=S)NCCO)c1sc2ccccc2c1Cl	45	1	53*
8	CCOC(=S)NC(=O)c1sc2ccccc2c1Cl	2	-2	-1
9	O=C(NCCCN1CCOCC1)c1sc2cc([N+](=O)[O-])ccc2c1Cl	-14	-7	-7
10	O=C(NC1CC1)c1sc2ccccc2c1Cl	45	-1	47*
11	O=C(NC1CC1)c1sc2cc(Cl)ccc2c1Cl	111*	2	44*
12	Cc1nc2ccc(NC(=O)CCC3CCCC3)cc2s1	73	-6	50*

item	Wnt act	Yeast UUG start	miR122 inh
1	38*	-9	-17
2	·	·	-4[16.7 µM]
3	76*	-7	2
4	13	-1	2
5	28	·	·
6	·	-17	0
7	42*	-12	-4
8	·	-17	-4
9	·	-14	-4
10	8	-13	-5
11	14	-9	·
12	3	-26	3

(cont.)
item	compound	MITF act	PglD inh	esBAF inh
13	Cc1ccc(C(=O)Nc2ccc(SC(F)F)cc2)s1	83*	3	·
14	CC[N+](CC)(CC)CC(=O)Nc1ccc(SC(F)F)cc1	-7	-1	-2
15	Cc1nc2cc(NC(=O)c3ccc(Br)s3)ccc2s1	6	1	70*
16	Cc1ccc(C(=O)Nc2ccc3nc(C)sc3c2)s1	45	4	58*
17	O=C(Nc1ccc2c(c1)OCCO2)c1ccc(Br)s1	16	5	·
18	Cc1ccc(C(=O)Nc2ccc3nc(C)sc3c2)o1	·	2	?
19	COc1ccc(S(=O)(=O)N(C)C[C@H]2OCCCC[C@H](C)Oc3ccc(NC(=O)CCCN(C)C)cc3C(=O)N([C@H](C)CO)C[C@@H]2C)cc1	·	2	-7
20	COc1ccc(-c2ccc3c(c2)O[C@@H](CN(C)C)[C@@H](C)CN([C@H](C)CO)S3(=O)=O)cc1	·	-2	2
21	C=CCc1ccccc1OCC(=O)O	-11	·	·
22	CCOC(=O)CCNC(=O)N1CCCC(C(=O)c2cccc(OC(C)C)c2)C1 (stereo not drawn)	·	-2	1
23	CCCC(=O)N1CCCC(C(=O)c2cccc(OC(C)C)c2)C1 (stereo not drawn)	·	-2	54*
24	Clc1ccc(OCCCc2nc(-c3ccncc3)no2)c(Cl)c1	9	-1	-4

item	Wnt act	Yeast UUG start	miR122 inh
13	11	-20	·
14	-1	-3	1
15	-3	-26	-1
16	·	-18	25
17	-4	-40	6
18	4	-19	-4
19	·	17	7[16.7 µM]
20	·	0	1[16.7 µM]
21	34*	·	·
22	-1	-5	·
23	1	1	-22
24	-4	-18	-1

(list continues)
item	compound	MITF act	PglD inh	esBAF inh
25	Clc1ccc(OCc2noc(-c3ccsc3)n2)c(Cl)c1	·	·	64*
26	Fc1cc(Cl)c(OCc2noc(-c3ccsc3)n2)c(Cl)c1	90*	·	·
27	COc1cc(-c2nc(Cc3ccccc3Cl)no2)cc(OC)c1OC	6	12	2
28	COc1ccc(-c2csc(Nc3cc(C)ccn3)n2)cc1OC	75	-3	43*
29	COc1ccc(-c2csc(Nc3ccc(C)cn3)n2)cc1OC	55	-2	61*
30	Cc1ccnc(Nc2nc(-c3ccccc3)cs2)c1	10	-2	8
31	CC(=O)Nc1cccc(-c2csc(Nc3cc(C)ccn3)n2)c1	36	-3	48*
32	Cc1ccc(Nc2nc(-c3ccc(O)c(O)c3)cs2)nc1	·	·	·
33	Cc1ccc(Nc2nc(-c3ccc(F)cc3)cs2)nc1	·	-7	76*
34	CO[C@@H]1CN(C)C(=O)c2ccc(NC(=O)Nc3ccc(Cl)cc3)cc2OC[C@@H](C)N(C(=O)Nc2c(C)noc2C)C[C@H]1C	·	-1	-2
35	C[C@@H]1CN([C@@H](C)CO)C(=O)Cc2cc(NC(=O)C3CC3)ccc2O[C@H]1CN(C)S(=O)(=O)c1ccc(Cl)cc1	·	-1	1
36	COc1ccc(S(=O)(=O)N[C@H]2CC[C@H](CC(=O)O)O[C@H]2CO)cc1	·	0	2

item	Wnt act	Yeast UUG start	miR122 inh
25	65*	·	·
26	0	·	·
27	·	-13	·
28	11	-11	-9
29	29	-16	-2
30	6	-10	-8
31	29	-13	0
32	-14	·	·
33	5	-9	8
34	·	2	·
35	·	0	-6[16.7 µM]
36	·	-9	·

The list continues:
item	compound	MITF act	PglD inh	esBAF inh
37	CCCc1ccc2oc(C(=O)N(C)Cc3nccs3)c(C)c2c1	41	3	52*
38	CCCc1ccc2oc(C(=O)N3CCC(O)CC3)c(C)c2c1	55	-2	?
39	CN(C)c1ccc2c(c1)[C@@H]1C[C@@H](CC(=O)NCc3ccc4c(c3)OCO4)O[C@H](CO)[C@@H]1O2	·	4	2
40	O=C(CCCCCn1c(=S)[nH]c2ccc(N3CCOCC3)cc2c1=O)NC1CCN(Cc2ccccc2)CC1	2	-3	1
41	O=C(NC1CCN(Cc2ccccc2)CC1)c1ccc(Cn2c(=S)[nH]c3ccc(N4CCOCC4)cc3c2=O)cc1	81*	1	31
42	Cn1nccc1C(=O)Nc1ccc(Cl)cc1	63	1	48*
43	Cn1nccc1C(=O)Nc1cc(Cl)ccc1Cl	·	-3	-6
44	C[C@H]1CN([C@@H](C)CO)S(=O)(=O)c2ccc(-c3cccnc3)cc2O[C@@H]1CN(C)Cc1cncnc1	·	0	2
45	O=C(Cc1c(Cl)cccc1Cl)OCc1ccccn1	?	-4	49*
46	CCCNC(=O)[C@@H]1[C@@H](CO)[C@@H]2Cn3c(ccc(-c4ccccc4F)c3=O)[C@@H]2N1CC1CC1	·	-3	0
47	CCNC(=O)C[C@@H]1CC[C@H]2[C@@H](COc3ccc(NC(=O)c4cccs4)cc3C(=O)N2C)O1	·	0	0
48	CSc1nc(-c2ccc(C)cc2)[nH]c1S(=O)(=O)c1ccccc1	-9	0	·

item	Wnt act	Yeast UUG start	miR122 inh
37	13	-1	1
38	0	-10	·
39	·	·	-3[16.7 µM]
40	-4	-6	-4
41	13	-16	-12
42	3	-16	3
43	9	-21	-4
44	·	-16	12[16.7 µM]
45	-1	9	·
46	·	·	·
47	·	-23	-2[16.7 µM]
48	-3	-4	126*

(further entries)
item	compound	MITF act	PglD inh	esBAF inh
49	C[C@@H]1CN([C@H](C)CO)C(=O)c2ccccc2-c2ccccc2CO[C@H]1CN(C)S(=O)(=O)c1cccs1	·	1	6
50	Nc1cc(SCc2ccc([N+](=O)[O-])cc2)ncn1	21	-1	10
51	CCCCn1c(CN2CCN(C(=O)OCC)CC2)nc2c1c(=O)n(C)c(=O)n2C	-8	-3	-4
52	CCCCCn1c(CN2CCN(CCO)CC2)nc2c1c(=O)n(C)c(=O)n2C	-4	8	2

item	Wnt act	Yeast UUG start	miR122 inh
49	·	·	·
50	37*	-8	·
51	42*	-11	-3
52	-2	-13	·
